According to paper doi:10.1101/2023.06.05.543739:

Target: hRbBP5 (Isoform 2) (human)
Test: ITC

pKd: 6.21
Substance: WDR5 23-334 (from UniProt P61964 23-334) (domain or fragment)

pKd: −log10 of the molar value.
